As usually defined, the Ki is a measure of affinity in units of concentration, obtained from inhibition or displacement.

Protein sequences, listed by entry. Tags and fused reporters are not part of them. Residues count along the entry.
UniProt F1N1Q8, 1-1022: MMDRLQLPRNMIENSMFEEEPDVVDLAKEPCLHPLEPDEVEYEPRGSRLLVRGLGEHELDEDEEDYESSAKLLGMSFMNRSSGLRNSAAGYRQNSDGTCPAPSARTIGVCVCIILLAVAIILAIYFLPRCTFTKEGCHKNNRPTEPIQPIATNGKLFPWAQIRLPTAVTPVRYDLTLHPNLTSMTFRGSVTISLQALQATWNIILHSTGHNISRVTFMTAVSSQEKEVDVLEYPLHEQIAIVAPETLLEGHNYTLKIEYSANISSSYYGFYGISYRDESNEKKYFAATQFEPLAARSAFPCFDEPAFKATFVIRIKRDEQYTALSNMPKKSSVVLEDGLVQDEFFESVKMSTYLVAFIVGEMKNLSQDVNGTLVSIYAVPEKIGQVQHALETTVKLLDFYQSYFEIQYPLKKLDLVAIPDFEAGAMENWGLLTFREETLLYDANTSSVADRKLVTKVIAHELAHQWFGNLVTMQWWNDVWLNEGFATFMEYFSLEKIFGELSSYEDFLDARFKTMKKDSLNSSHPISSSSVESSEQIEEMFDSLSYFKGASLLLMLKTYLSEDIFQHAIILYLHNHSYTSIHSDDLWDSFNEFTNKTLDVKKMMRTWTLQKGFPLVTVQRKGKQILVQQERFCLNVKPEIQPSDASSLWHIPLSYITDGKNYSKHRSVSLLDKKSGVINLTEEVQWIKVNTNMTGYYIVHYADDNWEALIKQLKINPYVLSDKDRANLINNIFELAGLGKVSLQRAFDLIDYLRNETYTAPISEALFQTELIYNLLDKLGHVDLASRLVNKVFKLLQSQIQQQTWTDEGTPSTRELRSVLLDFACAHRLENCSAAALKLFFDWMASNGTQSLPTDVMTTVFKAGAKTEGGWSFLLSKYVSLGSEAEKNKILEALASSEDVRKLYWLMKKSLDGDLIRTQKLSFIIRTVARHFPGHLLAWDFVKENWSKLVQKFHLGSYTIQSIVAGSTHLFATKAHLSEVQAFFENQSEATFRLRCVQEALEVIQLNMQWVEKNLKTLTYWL

The target in this experiment is AT4 receptor (Bos taurus, UniProt F1N1Q8). Description: 125I-AIV binding and competition, solubilized bovine adrenal cortical receptor. As to conditions: read-out: Ki, competition of 125I-AIV binding.
On to `CC(C)[C@H](N)C(=O)N[C@@H](Cc1ccc(O)cc1)C(=O)NCC(=O)N[C@@H](Cc1c[nH]cn1)C(=O)N1CCC[C@H]1C(=O)N[C@@H](Cc1ccccc1)C(=O)O`, for which the Ki is 0.116 µM.
Turning to `CC[C@H](C)[C@H](NC(=O)[C@H](Cc1ccc(O)cc1)NC(=O)CN)C(=O)N[C@@H](Cc1c[nH]cn1)C(=O)N1CCC[C@H]1C(=O)N[C@@H](Cc1ccccc1)C(=O)O`, the Ki amounted to 0.168 µM.
The result for `CC[C@H](C)[C@H](NC(=O)CNC(=O)[C@@H](N)C(C)C)C(=O)N[C@@H](Cc1c[nH]cn1)C(=O)N1CCC[C@H]1C(=O)N[C@@H](Cc1ccccc1)C(=O)O` reads 1 µM; that for `CC[C@H](C)[C@H](NC(=O)[C@H](Cc1ccc(O)cc1)NC(=O)[C@@H](N)C(C)C)C(=O)NCC(=O)N1CCC[C@H]1C(=O)N[C@@H](Cc1ccccc1)C(=O)O`, 0.000698 µM; that for `CC[C@H](C)[C@H](NC(=O)[C@H](Cc1ccc(O)cc1)NC(=O)[C@@H](N)C(C)C)C(=O)N[C@@H](Cc1c[nH]cn1)C(=O)NCC(=O)N[C@@H](Cc1ccccc1)C(=O)O`, 0.00021 µM.
Regarding `CC[C@H](C)[C@H](NC(=O)[C@H](Cc1ccc(O)cc1)NC(=O)[C@@H](N)C(C)C)C(=O)N[C@@H](Cc1c[nH]cn1)C(=O)N1CCC[C@H]1C(=O)NCC(=O)O`, the Ki is 0.00716 µM.

These data come from patent US6022696A, “Methods of identifying agonists or antagonists of angiotensin IV” (Washington State University Research Foundation, priority 1998, dated 2000).
